Test results reported in patent US6423701B1, “Water soluble amine esters of testosterone for intranasal administration” (University of Kentucky, priority 1996, dated 2002).

What was measured:
[1] = Nasal absorption of TSDG in rats: plasma levels after intranasal and intravenous administration, HPLC; assay type: in vivo, Male Sprague-Dawley rats
Procedure: The nasal absorption of the water soluble testosterone prodrug TSDG was studied using an in vivo experimental technique previously described by Huang et al. (J.Pharmaceut. Sci., 74: 608-611, 1985).
Male Sprague-Dawley rats weighing 250-275 gm were used. Animals were fasted overnight before the experiment, but water was given ad libitum. All surgical procedures were performed under sodium pentobarbital anesthesia (40 mg/kg i.p.). An incision was made in the neck, and the trachea was cannulated with a polyethylene tube. A closed tube was inserted through the esophagus to the posterior part of the nasal cavity. The nasopalatine passage was closed with an adhesive agent to prevent drainage of the drug from the nasal cavity to the mouth.
Blood samples were collected from a cannula inserted into the femoral artery. For intravenous administration, the jugular vein was cannulated for administering the dose.
Drug solutions at 25 and 50 mg/kg/0.2 ml equimolar doses of TSDG were freshly prepared by using 0.05M phosphate buffer at pH 6.0. For nasal administration, aqueous solutions of TSDG and testosterone were administered through the nostril using a microsyringe. For intravenous administration, the same dose of the drug was injected through the jugular vein.
Blood samples were collected at 0, 5, 10, 20, 30, 40, 60, 90, 120, 150, and 180 minutes. After immediate centrifugation (3000×g for 3 min), the plasma was separated. The animal was sacrificed after the last sample was obtained, and the samples were then analyzed by HPLC, using the method of Hsyu et al. (Pharm. Res. 11:156-159, 1994). Briefly, plasma concentrations of testosterone free base were determined via a HPLC protocol which included solid-phase extraction, separation on a reverse-phase cyano column, and UV detection at 305 nm.

[2] = human liver homogenate, FIG. 2
[3] = FIG. 3

Which results are given for “testosteronyl, N,N-dimethyl amine glyconate [TSDG]”?
Absorption ([1]; intranasal, 25.0 mg/kg): rapid; plasma levels at all time points, compared with intravenous administration ([1]; intranasal, 25.0 mg/kg): comparable to those following intravenous administration; AUC ([1]; intranasal, dose 25 mg/kg): 1630 ng·h/mL; AUC ([1]; intranasal, dose 50 mg/kg): 2660 ng·h/mL; AUC ([1]; intravenous, dose 25 mg/kg): 1650 ng·h/mL; AUC ([1]; intravenous, dose 50 mg/kg): 2830 ng·h/mL; conversion to TS [2]: convert rapidly to TS; stability in water [3]: very stable in water
